Yeast mating assay B: variants of the scFv Ab-14

The target is the same throughout: PDVDLGDISGINAS, from the HR2 region of SARS-CoV-2 spike.

Ab-14 is the parent antibody, in scFv form: VH, then the linker GGGGSGGGGSGGGGS, then VL. The heavy chain is unchanged in all variants.
VH: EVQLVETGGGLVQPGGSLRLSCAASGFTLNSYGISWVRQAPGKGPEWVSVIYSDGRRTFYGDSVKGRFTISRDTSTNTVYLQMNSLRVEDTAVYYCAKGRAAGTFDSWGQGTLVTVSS
VL: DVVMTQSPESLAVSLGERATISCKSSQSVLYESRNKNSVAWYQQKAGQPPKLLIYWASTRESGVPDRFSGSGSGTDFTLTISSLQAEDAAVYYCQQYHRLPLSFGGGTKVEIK

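The parent was found by panning a naive human phage display library on the peptide. The variants were designed computationally from a first round of random CDR variants and then made and measured. Several design methods are mixed in this list. AlphaSeq pools MATa yeast showing the antibodies with MATalpha yeast showing the peptide. Binding brings cells together so that they mate, and sequencing counts the barcode pairs among the diploids. Scores were corrected for input abundance and mapped to Kd with protein pairs of known affinity run in the same pool. The assay was run in six technical replicates.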

Sequences are complete VL domains. This list holds designs with at most six substitutions. Affinities are written as log10 Kd with Kd in nM; a lower number is a better binder. Replicates are averaged; those with no signal do not enter the mean. An entry "nd" has no value in the source: the pair was not observed among the diploids in any replicate. This suggests poor binding but is not conclusive. Values of this round are not directly comparable with the first-round values of the same sequences. Of ten entries with the parent sequence, four were seen in most replicates (averages 0.34 to 2.37), three in one and three in none, so single entries are noisy. In the paper, a design with two or fewer of six values counts as a poor binder. Nonspecific signal, from three strains lacking the peptide, appeared in 4% of pairings of all light chain designs, centred on 2.64 (5% of these signals below 1.59); values are not corrected for it.

For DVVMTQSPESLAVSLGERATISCKSSFVYLYESRNKNSVAWYQQKAGQPPKLLIYSASTRESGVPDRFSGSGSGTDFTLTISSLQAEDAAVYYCQQYHRLPLSFGGGTKVEIK, the assay gave 2.13 (6 of 6 replicates). The variant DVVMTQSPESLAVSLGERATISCKFGQGVLYESRNKNSVAWYQQKAGQPPKLLIYGASQRESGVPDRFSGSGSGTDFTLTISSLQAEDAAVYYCQQYHRLPLSFGGGTKVEIK showed -0.08 (6 of 6 replicates). With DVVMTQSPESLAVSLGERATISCKSSQSVLYESRNKNSIAWYQQKAGQPPKLLIYSASTRESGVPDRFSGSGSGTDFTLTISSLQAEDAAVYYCQQYHRLPLGFGGGTKVEIK the result was 0.70 (6 of 6 replicates). The variant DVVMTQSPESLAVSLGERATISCKSSQSVLYESRNKNSVAWYQQKAGQPPKLLIYKASRRESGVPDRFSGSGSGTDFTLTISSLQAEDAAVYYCQCYHRLPLSFGGGTKVEIK gave nd (0 of 6 replicates). The variant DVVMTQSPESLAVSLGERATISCKISQSNLYESRNKNSVAWYQQKAGQPPKLLIYWASTRESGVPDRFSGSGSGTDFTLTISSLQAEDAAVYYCQQYHRLPLSFGGGTKVEIK showed 1.22 (6 of 6 replicates). The variant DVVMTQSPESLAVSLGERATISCKLSQSVLYESRDKNAVAWYQQKAGQPPKLLIYNASTRESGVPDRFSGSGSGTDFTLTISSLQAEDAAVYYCQQYHRLPLSFGGGTKVEIK showed -0.02 (6 of 6 replicates). With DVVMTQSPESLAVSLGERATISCKSSQSVLYEERRKNSVAWYQQKAGQPPKLLIYWASTREPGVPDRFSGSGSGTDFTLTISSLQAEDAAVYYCQQYHRLPLSFGGGTKVEIK the result was 2.44 (4 of 6 replicates).

The variant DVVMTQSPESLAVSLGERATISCHSSPSVAYESRNKNSVAWYQQKAGQPPKLLIYNASTRESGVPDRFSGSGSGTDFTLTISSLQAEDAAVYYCQQYHRLPLSFGGGTKVEIK showed -0.09 (6 of 6 replicates). With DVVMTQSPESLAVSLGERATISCKLSQSVLYESRNKNSVAWYQQKAGQPPKLLIYNGSTREVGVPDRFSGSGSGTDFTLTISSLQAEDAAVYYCQQYHRLPLSFGGGTKVEIK the result was -0.33 (6 of 6 replicates). The variant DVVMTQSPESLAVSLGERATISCKLQQSVLYESRNKNSVAWYQQKAGQPPKLLIYGASTRCSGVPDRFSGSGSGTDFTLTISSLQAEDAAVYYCQQYHRLPLSFGGGTKVEIK showed 0.59 (6 of 6 replicates). For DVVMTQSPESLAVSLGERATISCKSSQSVLYESSNKNSVAWYQQKAGQPPKLLIYAASTRESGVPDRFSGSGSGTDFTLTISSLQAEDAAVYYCQQYHRLPLSFGGGTKVEIK, the assay gave 0.41 (6 of 6 replicates). For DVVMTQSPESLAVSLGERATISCKLSISYLYESRNENSVAWYQQKAGQPPKLLIYEASTREQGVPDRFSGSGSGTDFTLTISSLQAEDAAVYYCQQYHRLPLSFGGGTKVEIK, the assay gave -0.44 (6 of 6 replicates). The variant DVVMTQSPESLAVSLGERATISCKSGQGVLYESRNKWSVAWYQQKAGQPPKLLIYGASTRESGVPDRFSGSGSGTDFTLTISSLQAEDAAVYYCQQYHRLPLSFGGGTKVEIK gave 1.46 (6 of 6 replicates). The variant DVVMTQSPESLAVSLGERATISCKLSQSVLYESRNKNSVAWYQQKAGQPPKLLIYWASTRENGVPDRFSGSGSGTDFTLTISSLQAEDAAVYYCAQYHRLPVSFGGGTKVEIK showed 2.88 (3 of 6 replicates).

The variant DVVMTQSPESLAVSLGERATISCKSGMGVLYESRNKNSVAWYQQKAGQPPKLLIYGASQRLSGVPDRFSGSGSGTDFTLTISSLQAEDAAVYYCQQYHRLPLSFGGGTKVEIK gave 0.26 (6 of 6 replicates). The variant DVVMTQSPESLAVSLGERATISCKLPQSDLYESRNKNSVAWYQQKAGQPPKLLIYGASTRESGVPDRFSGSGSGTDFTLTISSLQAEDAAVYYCQQYHRLPLSFGGGTKVEIK showed 0.47 (6 of 6 replicates). The variant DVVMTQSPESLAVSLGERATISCKVSQSQLYESRNKNAVAWYQQKAGQPPKLLIYEASTRESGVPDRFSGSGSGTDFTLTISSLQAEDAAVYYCQQYHRLPLSFGGGTKVEIK showed -0.32 (6 of 6 replicates). The variant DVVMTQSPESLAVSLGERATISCKQSQSWLYESRNKNSVAWYQQKAGQPPKLLIYGASTRESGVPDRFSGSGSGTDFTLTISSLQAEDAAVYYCQQYHRLPLSFGGGTKVEIK gave 0.10 (6 of 6 replicates). The variant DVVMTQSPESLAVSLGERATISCKSWQSVLAESRNKNSVAWYQQKAGQPPKLLIYGASTRESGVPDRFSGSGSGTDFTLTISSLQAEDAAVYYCQQYHRLPLSFGGGTKVEIK gave 0.84 (6 of 6 replicates). For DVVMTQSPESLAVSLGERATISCKSSISQLGEQRNKNSVAWYQQKAGQPPKLLIYDISTRESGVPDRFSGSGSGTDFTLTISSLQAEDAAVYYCQQYHRLPLSFGGGTKVEIK, the assay gave 0.43 (6 of 6 replicates). The variant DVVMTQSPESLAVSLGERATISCKLSQSELYESRMKNSVAWYQQKAGQPPKLLIYNASQRLSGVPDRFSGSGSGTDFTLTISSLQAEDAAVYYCQQYHRLPLSFGGGTKVEIK gave -0.08 (6 of 6 replicates).

For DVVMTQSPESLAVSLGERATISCASSQSVLYESRNKNSVAWYQQKAGQPPKLLIYWASTRESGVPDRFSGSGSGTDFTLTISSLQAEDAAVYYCQQYHHLPLSFGGGTKVEIK, the assay gave 2.51 (4 of 6 replicates). The variant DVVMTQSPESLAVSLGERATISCKSSKSGLYESRMKNSVAWYQQKAGQPPKLLIYEASTRESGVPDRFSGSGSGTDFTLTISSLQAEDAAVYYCQQYHRLPLSFGGGTKVEIK gave 0.61 (6 of 6 replicates). For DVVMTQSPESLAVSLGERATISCKSSQSVLYESMNKNSVAWYQQKAGQPPKLLIYWASTREAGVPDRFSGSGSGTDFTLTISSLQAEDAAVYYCQQYHRLPLSFGGGTKVEIK, the assay gave 1.21 (6 of 6 replicates). The variant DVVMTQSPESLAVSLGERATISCKLQQSEPYESRNKNSVAWYQQKAGQPPKLLIYNASQRESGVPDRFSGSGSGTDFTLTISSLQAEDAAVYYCQQYHRLPLSFGGGTKVEIK gave 0.07 (6 of 6 replicates). The variant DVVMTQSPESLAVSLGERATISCKSSQSWLYESRNFWSVAWYQQKAGQPPKLLIYNASTRESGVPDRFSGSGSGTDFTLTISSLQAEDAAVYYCQQYHRLPLSFGGGTKVEIK gave -0.25 (6 of 6 replicates).

Top 4 of the variants detected in all replicates, tightest first:

VL	mean log10 Kd (nM)	detected
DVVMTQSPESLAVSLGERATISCKLSISYLYESRNENSVAWYQQKAGQPPKLLIYEASTREQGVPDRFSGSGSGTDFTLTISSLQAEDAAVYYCQQYHRLPLSFGGGTKVEIK	-0.44	6/6
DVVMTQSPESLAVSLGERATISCKLSQSVLYESRNKNSVAWYQQKAGQPPKLLIYNGSTREVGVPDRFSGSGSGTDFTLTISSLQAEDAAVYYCQQYHRLPLSFGGGTKVEIK	-0.33	6/6
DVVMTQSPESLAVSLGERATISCKVSQSQLYESRNKNAVAWYQQKAGQPPKLLIYEASTRESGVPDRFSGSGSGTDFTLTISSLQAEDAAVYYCQQYHRLPLSFGGGTKVEIK	-0.32	6/6
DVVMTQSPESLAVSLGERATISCKSSQSWLYESRNFWSVAWYQQKAGQPPKLLIYNASTRESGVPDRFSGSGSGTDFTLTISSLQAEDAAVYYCQQYHRLPLSFGGGTKVEIK	-0.25	6/6

Data: MIT Lincoln Laboratory AlphaSeq set, Li et al. 2023, doi:10.1038/s41467-023-39022-2, as distributed in FLAb.